Reference: patent US20090317825A1, “ASSAY FOR PARKINSON'S DISEASE THERAPEUTICS AND ENZYMATICALLY ACTIVE PARKIN PREPARATIONS USEFUL THEREIN” (ELAN PHARMA INTERNATIONAL LIMITED, priority 2005, published 2009)

Biological target: T1, Parkin (Homo sapiens, UniProt O60260)
T1 construct: made in house; host or cells: E. coli BL21 (DE3)-pLysS, plasmid pET30a-Parkin
T1 sequence (O60260 1-465): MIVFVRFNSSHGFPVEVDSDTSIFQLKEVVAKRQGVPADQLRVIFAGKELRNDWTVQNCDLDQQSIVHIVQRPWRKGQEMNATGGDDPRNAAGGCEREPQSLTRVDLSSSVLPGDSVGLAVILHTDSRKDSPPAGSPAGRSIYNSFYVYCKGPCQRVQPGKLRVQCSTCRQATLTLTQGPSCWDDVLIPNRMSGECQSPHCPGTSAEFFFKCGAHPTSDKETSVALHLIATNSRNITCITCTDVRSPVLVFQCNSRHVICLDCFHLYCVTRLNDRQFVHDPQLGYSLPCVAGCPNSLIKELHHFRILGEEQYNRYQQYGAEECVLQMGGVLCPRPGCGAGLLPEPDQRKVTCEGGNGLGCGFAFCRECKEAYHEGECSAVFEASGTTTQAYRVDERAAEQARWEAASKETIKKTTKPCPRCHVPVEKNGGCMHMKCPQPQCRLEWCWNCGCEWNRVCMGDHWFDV
Test: Parkin autoubiquitination activity assay of purified recombinant Parkin
Format: biochemical
From the text: The dialysate containing Parkin can be collected and any precipitant removed. The activity of the purified protein can be determined using an autoubiquitination assay. See Lorick et al., 1999, “RING fingers mediate ubiquitin-conjugating enzyme (E2)-dependent ubiquitination” Proc Natl Acad Sci USA 96:11364-9 and Example 10. Preferably the specific activity of the purified Parkin material (>95% Parkin protein) is at least about 0.1 Unit/0.5 microgram Parkin protein. For example, the specific activity may be between 0.1 Unit per 0.5 micrograms and 5 Units/0.5 micrograms. In certain embodiments the specific activity is at least about 0.2 U, at least about 0.25 U, or at least 0.5 U/0.5 microgram Parkin protein In referring to specific activity a “Unit” is defined as the ability of a Parkin protein preparation to transfer 50 ng ubiquitin to Parkin in 15 minutes (e.g., under the assay conditions described in Example 10, below, where from 0.5 to 10 micrograms, usually 0.5 micrograms, Parkin protein is used in the reaction) or, equivalently, one-quarter unit is the ability to transfer 25 ng ubiquitin to Parkin in 30 minutes.
An assay mixture containing His6-Parkin prepared as described in Examples 6 and 7 was prepared. The 50 ul volume assay contained:
1 mM Mg-ATP (omitted from controls) • *29.2 μl of 1 mM methylated ubiquitin (U-502, Boston Biochem lot #2880574, dissolved in dH2O to 1 mM) was used to resuspend 50 μg of biotin-ubiquitin (UB-560, Boston Biochem lot #2011584).
The reaction was incubated at 37° C. for 0, 15, 30, 60 or 90 minutes, and reactions terminated by adding 6 μl 5× sample buffer (250 mM HEPES pH 7.5; 250 mM NaCl) plus 4 μl 1 M DTT.
A 15 μl aliquot of the assay mixture was electrophoresed on an 12% polyacrylamide gel and transferred to a polyvinylidene fluoride (PVDF) membrane overnight (25V in 10 mM CAPS, pH 11, 10% MeOH, 4° C.) for Western blotting. The membrane was blocked 2 hours in TBST+5% BSA and incubated 1 hour at room temperature with NeutrAvidin-HRP (dilution: 1:7,500) in TBST+3% BSA (1 hour at room temperature). […]

B1: His-tagged Parkin: Full-length human Parkin fused to N-terminal histidine tag, expressed in E. coli, purified from inclusion bodies and refolded (protein, UniProt O60260 1-465, looked up)
E3 ubiquitin-protein ligase …: T1 sequence (O60260 1-465)
modifications: His tag
For B1, the specific activity (Unit = ability to transfer 50 ng ubiquitin to Parkin in 15 minutes, in the presence of human GST-E1, UbCH7, ubiquitin and Mg-ATP) was “approximately one-quarter” and the “ubiquitin transferred to Parkin” value (in 30 minutes, 0.5 microgram Parkin) was 25.2 ng.

B2: #8BSEC: His6-tagged Parkin fraction additionally purified by S200 size exclusion chromatography, then refolded (protein, UniProt O60260 1-465, looked up)
E3 ubiquitin-protein ligase …: T1 sequence (O60260 1-465)
modifications: His6 tag
In the case of B2, the “activity compared with the #8B material” value (after optional SEC purification and refolding) is reported as “about the same”.
